Experiments:
[1] = target: human HSP90 alpha protein (N-terminal, amino acids 2-236) (Homo sapiens (Human), UniProt P07900); assay: Measurement of HSP90-binding activity (AlphaScreen competitive assay, biotin-labeled geldanamycin); conditions: read-out: HSP-binding activity IC50
Experimental: First, a solution of purified HSP90 was prepared as follows. […] The pET-HSP90N was introduced into Escherichia coli cells (BL21 (DE3), Stratagene Inc.), and then the Escherichia coli cells were cultured in the presence of 0.5 mM isopropyl-beta-D-thiogalactopyranoside (Sigma-Aldrich Corp.) at 37° C. for 4 hours. The Escherichia coli cells were collected, suspended in a lysis buffer (50 mM Tris-HCl (pH 7.5), 200 mM NaCl), and sonicated. The sonicated cell solution was centrifuged (40,000×g, 20 minutes) to obtain supernatant as a crude extract. The crude extract was fractionated by Ni Sepharose High Performance (GE Healthcare Japan Corporation) chromatography and HiLoad 26/60 Superdex 75 pg (GE Healthcare Japan Corporation), and the fraction in which HSP90 protein was concentrated was prepared so as to be a 50 mM Tris-HCl (pH 7.5)/20% glycerol solution as a purified HSP90 solution. […]
The HSP90-binding activity was measured by an AlphaScreen competitive assay system. […] After reaction in a dark place at room temperature for 1 hour, the fluorescence intensity in each well was measured with a multilabel plate reader, EnVision (Perkin Elmer, Inc.). The inhibition rate (%) of biotin-labeled geldanamycin binding by a compound of the present invention was determined by the following equation using the fluorescence signal of a test substance-free group (control) as a control. […]

[2] = system: SK-BR-3 cells; assay: Measurement of cell growth inhibition (crystal violet staining); assay type: cell-based; conditions: Homo sapiens, SK-BR-3, 72 h, read-out: Cell growth inhibition IC50
Experimental: Cell growth was measured by a crystal violet staining method. […] The cells were cultured in a 5% CO2 incubator at 37° C. for 24 hours, and then test substances were added to the plate, followed by culturing for further 72 hours. […] The plate was left to stand at room temperature for 20 minutes for staining the cells. The plate was washed with water and dried, and 100 μL of a mixed solution of 0.05 M NaH2PO4 and ethanol (mixture in equal amounts) was added to each well. The absorbance at 540 nm was measured with a microplate reader (MTP-450, Corona Electric Co., Ltd.) as an index of the number of cells in each well. The inhibition rate (%) of cell growth by a compound of the present invention was determined by the following equation using the absorbance of a drug-untreated group (control) as a control. […] Inhibition rate (%)=(C−T)/C×100 T: absorbance in a well to which a test substance was added C: absorbance in a well to which no test substance was added

SMILES: CCCc1cn(-c2ccc(C(N)=O)c(NC(C)(C)C)c2)c2cccc(-n3cnc(-c4cnn(C)c4)c3)c12 [Example 50, 2-(Tert-buylamino)-4-{4-(4-(1-methyl-1H-pyrazolo-4-yl)-1H-imidazolo-1-yl)-3-propyl-1H-indol-1-yl}benzamide]
- IC50 [1]: 250 nM
- IC50 [2]: 10 nM

From patent US9120780B2, “Indole or indazole derivative or salt thereof” (TAIHO PHARMACEUTICAL CO., LTD., priority 2011, dated 2015)
